From patent publication US10370371B2, “Substituted pyrimidine Bmi-1 inhibitors” (PTC Therapeutics, Inc., priority 2013, dated 2019)

Test system: Bmi-1 protein
Test: Sandwich ELISA Assay (Bmi-1 protein level in HT-1080 cells)
Type: cell-based
Details: read-out: ELISA EC50 value for Bmi-1 protein
Protocol: Cell Seeding and Compound Treatment (Day 1):
HT-1080 cells were seeded at 8000 cells/well (50 μL) in 96-well tissue culture plates. After the cells became adherent (3-4 hours), 2× diluted stocks of test compounds in 50 μL DMEM containing 1% DMSO (final DMSO concentration was 0.5%) were added and the plates were incubated at 37° C. under 5% CO2 for 40-48 hours.
ELISA Plate First Antibody Preparation (Day 2):
The First Antibody (Millipore Mouse, monoclonal to mouse Bmi-1, clone F6, catalog #05-637) diluted to 2 μg/mL in PBS was added (100 μL) to each well of a Nunc MaxiSorp 96-well ELISA plate. The plate was covered with a plate seal and allowed to stand overnight.
Cell Lysate Preparation (Day 3):
Fresh Lysis buffer (1×) was prepared on the day of the assay as follows: 1 mM EDTA, 150 mM NaCl, 0.5% Triton-X 100, 10 mM NaF, 20 mM B-Glycerophosphate, 1 mM DTT (in PBS, pH 7.2-7.4) and HALT protease inhibitor cocktail (1×) (Pierce #78410).
Lysis Buffer (1×, 40 μL) was added to each well and the plate was shaken for 5-10 minutes on an orbital shaker to allow cell lysis, then diluent (1% BSA in PBS in 0.5% NP40) (100 μL) was added to each well. […]
The plate was washed and blotted dry, then a previously prepared TMB substrate (TMB substrate kit, Pierce catalog #34021) (prepared by mixing kit reagents 1:1) (100 μL) was added per well. […] The plates were read at OD450 (experimental) and OD570 (reference).

Cc1nc2ccc(F)cc2n1-c1cc(NP(=O)(O)O)nc(Nc2ccc(C(F)(F)F)cc2)n1
pEC50: 7.00 to 8.00

pEC50: −log10 of the molar value.
